Amino acid sequences for entries named in this document (tags omitted). A change or cut given only in a name is not applied to a line headed by its entry.
UniProt P35372, whole entry, looked up: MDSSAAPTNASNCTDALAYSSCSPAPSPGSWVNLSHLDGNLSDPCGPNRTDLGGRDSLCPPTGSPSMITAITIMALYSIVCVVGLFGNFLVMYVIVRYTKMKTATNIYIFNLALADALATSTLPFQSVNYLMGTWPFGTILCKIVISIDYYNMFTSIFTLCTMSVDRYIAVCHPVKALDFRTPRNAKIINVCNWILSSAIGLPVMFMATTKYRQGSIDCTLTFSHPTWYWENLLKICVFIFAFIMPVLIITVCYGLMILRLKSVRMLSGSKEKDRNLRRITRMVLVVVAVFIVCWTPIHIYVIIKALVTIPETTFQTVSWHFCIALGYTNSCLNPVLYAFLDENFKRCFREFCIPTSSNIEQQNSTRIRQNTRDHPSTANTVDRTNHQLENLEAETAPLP
UniProt P41145: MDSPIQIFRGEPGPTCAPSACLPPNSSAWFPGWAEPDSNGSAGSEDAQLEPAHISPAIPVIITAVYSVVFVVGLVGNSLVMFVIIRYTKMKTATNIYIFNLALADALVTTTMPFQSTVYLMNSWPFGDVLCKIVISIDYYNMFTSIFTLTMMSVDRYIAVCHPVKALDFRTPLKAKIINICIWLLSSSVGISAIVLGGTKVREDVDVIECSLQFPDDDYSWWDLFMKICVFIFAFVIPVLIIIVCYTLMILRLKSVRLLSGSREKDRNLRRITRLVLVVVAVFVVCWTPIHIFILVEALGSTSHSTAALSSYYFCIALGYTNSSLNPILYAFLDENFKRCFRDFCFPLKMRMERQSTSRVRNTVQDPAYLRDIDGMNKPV
UniProt P41143, whole entry, looked up: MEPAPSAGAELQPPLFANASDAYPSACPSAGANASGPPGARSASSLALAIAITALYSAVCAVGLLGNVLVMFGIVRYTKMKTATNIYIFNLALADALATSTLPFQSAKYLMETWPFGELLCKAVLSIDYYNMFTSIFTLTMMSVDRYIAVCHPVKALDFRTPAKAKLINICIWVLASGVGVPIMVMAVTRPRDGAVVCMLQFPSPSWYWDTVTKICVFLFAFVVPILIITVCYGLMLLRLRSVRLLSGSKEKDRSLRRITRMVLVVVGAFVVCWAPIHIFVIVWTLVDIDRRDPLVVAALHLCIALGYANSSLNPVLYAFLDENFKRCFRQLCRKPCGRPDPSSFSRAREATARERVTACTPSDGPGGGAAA
UniProt P21333: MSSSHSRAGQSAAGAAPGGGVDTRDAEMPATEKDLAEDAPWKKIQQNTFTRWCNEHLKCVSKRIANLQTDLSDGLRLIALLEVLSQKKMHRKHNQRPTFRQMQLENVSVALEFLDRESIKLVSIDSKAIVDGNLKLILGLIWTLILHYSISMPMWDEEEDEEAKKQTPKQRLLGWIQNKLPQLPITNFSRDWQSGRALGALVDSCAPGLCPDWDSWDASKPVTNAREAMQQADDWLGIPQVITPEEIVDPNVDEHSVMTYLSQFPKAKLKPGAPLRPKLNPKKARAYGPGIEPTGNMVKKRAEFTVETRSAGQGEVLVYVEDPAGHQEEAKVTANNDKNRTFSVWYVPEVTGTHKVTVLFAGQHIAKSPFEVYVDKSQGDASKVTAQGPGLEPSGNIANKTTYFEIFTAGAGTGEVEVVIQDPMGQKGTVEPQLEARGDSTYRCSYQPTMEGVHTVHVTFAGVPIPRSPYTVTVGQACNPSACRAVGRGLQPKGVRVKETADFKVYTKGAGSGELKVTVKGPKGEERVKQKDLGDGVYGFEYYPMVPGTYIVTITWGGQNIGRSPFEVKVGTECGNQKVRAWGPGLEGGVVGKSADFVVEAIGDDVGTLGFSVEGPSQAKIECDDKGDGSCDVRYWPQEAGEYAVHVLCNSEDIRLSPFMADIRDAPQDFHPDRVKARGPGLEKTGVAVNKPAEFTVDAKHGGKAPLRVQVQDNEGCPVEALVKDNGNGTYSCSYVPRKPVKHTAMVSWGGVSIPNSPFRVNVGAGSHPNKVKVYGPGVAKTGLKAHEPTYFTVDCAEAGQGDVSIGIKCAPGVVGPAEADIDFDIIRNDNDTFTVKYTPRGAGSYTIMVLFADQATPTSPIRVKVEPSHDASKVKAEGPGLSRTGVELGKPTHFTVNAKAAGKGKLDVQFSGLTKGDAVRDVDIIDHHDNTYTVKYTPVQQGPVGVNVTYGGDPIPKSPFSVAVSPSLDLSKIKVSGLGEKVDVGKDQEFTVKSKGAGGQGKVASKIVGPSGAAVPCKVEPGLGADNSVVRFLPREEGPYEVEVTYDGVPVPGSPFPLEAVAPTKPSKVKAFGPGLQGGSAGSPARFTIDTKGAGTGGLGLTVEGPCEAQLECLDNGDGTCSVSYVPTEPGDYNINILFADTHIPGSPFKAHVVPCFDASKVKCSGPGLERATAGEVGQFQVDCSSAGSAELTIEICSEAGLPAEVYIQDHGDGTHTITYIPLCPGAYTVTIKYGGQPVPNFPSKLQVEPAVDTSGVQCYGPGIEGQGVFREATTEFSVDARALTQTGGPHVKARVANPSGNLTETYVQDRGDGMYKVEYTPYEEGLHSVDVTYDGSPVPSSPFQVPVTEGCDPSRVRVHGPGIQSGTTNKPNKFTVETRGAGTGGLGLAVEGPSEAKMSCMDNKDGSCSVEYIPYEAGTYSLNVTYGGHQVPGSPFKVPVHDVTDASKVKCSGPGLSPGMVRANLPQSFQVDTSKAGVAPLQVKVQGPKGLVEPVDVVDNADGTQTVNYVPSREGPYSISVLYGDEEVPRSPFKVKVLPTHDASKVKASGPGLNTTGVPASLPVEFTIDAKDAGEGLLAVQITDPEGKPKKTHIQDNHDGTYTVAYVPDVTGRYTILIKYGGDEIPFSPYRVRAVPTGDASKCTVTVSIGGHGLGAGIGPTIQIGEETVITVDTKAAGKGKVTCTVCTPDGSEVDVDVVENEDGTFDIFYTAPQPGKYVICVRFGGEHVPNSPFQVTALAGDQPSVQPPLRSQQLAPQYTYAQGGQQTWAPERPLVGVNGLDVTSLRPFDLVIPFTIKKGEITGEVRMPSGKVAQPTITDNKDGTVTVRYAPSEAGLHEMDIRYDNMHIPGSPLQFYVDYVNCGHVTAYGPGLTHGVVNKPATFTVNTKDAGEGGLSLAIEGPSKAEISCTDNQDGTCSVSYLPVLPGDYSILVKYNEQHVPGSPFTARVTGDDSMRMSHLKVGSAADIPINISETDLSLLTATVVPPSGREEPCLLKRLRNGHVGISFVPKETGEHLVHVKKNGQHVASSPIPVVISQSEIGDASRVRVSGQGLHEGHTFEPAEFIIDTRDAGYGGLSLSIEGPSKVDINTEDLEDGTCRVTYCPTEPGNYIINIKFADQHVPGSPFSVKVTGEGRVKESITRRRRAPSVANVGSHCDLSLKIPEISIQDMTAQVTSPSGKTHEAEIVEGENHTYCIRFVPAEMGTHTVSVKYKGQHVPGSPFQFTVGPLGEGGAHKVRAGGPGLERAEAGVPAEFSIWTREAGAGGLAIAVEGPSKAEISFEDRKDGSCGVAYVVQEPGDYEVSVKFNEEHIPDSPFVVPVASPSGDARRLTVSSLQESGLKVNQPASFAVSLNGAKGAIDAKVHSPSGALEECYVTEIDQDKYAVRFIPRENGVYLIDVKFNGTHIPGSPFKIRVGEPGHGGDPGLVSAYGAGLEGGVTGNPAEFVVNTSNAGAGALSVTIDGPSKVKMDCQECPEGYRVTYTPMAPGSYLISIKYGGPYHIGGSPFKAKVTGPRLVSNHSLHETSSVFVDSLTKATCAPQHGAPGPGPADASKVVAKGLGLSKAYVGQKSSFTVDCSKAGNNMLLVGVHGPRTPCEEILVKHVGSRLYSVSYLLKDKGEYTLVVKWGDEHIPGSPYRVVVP

According to patent US20140094482A1, “BENZAZOCINE-RING COMPOUND INHIBITION OF TAU HYPERPHOSPHORYLATION” (priority 2012, published 2014):

Tests used:
[1] = molecular target: mu opioid receptor (MOR) (Homo sapiens, UniProt P35372); conditions: as reported in Goodman & Gilman, 12th ed., Table 18-1-3; cited from earlier work
[2] = molecular target: kappa-opioid receptor (Homo sapiens, UniProt P41145); conditions: as reported in Goodman & Gilman, 12th ed., Table 18-1-3; cited from earlier work
[3] = molecular target: delta-opioid receptor (Homo sapiens, UniProt P41143); conditions: as reported in Goodman & Gilman, 12th ed., Table 18-1-3; cited from earlier work
[4] = molecular target: FLNA pentapeptide of SEQ ID NO: 1 (Bn-VAKGL) (Homo sapiens, UniProt P21333); experiment: FITC-NLX-based FLNA screening assay (inhibition of FITC-naloxone binding to Bn-VAKGL)

Structure (SMILES): CO[C@]12CC[C@@]3(C[C@@H]1C(C)(C)O)[C@H]1Cc4ccc(O)c5c4[C@@]3(CCN1CC1CC1)[C@H]2O5
- RECEPTOR MU: antagonism/agonism and relative potency [1]: −−−
- RECEPTOR KAPPA: antagonism/agonism and relative potency [2]: −−−
- RECEPTOR DELTA: antagonism/agonism and relative potency [3]: −−
- Percent Inhibition ([4]; 1 μM compound (n = 5)): 45.9%
- Percent Inhibition ([4]; 10 μM compound (n = 4)): 65.8%
